Earlier results on one substance are cited in paper PMC8438204, “Unraveling the Thermodynamics of Ultra-tight Binding of Intrinsically Disordered Proteins” (Frontiers in Molecular Biosciences, 2021).

In the series the target is CcdB (Escherichia coli) (UniProt P62554).

Regarding CcdA (from UniProt P62552), the Kd was 4 pM.
